According to patent US20200179319A1, “PHARMACEUTICAL FORMULATIONS AND THEIR USE” (Signum Biosciences, Inc., priority 2016, published 2020):

Assay: Screening Study (Example 3): sulfoxide formed in API solution with each agent, HPLC
Type: physicochemical
Details: 24 hours exposed to air at room temperature, not protected from light
Description: A buffer solution was prepared by adding 0.72 g of Na2HPO4, 0.24 g KH2PO4 and 500 mL of deionized water into a container and mixing.
A solution of each agent in the table below was prepared by adding 500 mg or each agent into a 25 mL volumetric flask and filling the flask to volume by the addition of the prepared buffer solution.
A 6% solution of API was prepared by adding 3.0 g the disodium salt of 4-(((R)-1-carboxy-2-(((2E,6E)-3,7,11-trimethyldodeca-2,6,10-trien-1-yl)thio)ethyl)amino)-4-oxobutanoic acid to a 50 mL volumetric flask and filling the flask to volume by the addition of methanol, followed by mixing.
A screen was performed for each agent as follows: (1) 2.5 mL of the stock solution of API and 2.5 mL of each agent was added into a 100 mL volumetric flask and the contents were mixed (repeated three times for each agent); and (2) allowing each resulting mixture to sit for 24 hours exposed to air at room temperature and not protected from light. A blank solution was prepared (3×) by adding buffer solution into the 100 mL volumetric flask in place of the agent. After 24 hours, each volumetric flask was filled to volume by the addition of methanol, and an aliquot of each mixture was removed and analyzed by HPLC.
The area of the sulfoxide of 4-(((R)-1-carboxy-2-(((2E,6E)-3,7,11-trimethyldodeca-2,6,10-trien-1-yl)thio)ethyl)amino)-4-oxobutanoic acid produced in each solution was calculated as follows: % area sulfoxide=Rsulfoxide/(Rparent+Rsulfoxide), wherein Rsuffoxide=the area under the response of the sulfoxide in the HPLC trace, and Rparent=the area under the response of 4-(((R)-1-carboxy-2-(((2E,6E)-3,7,11-trimethyldodeca-2,6,10-trien-1-yl)thio)ethyl)amino)-4-oxobutanoic acid in the HPLC trace.

Substance: D-α-Tocopherol polyethylene glycol succinate
- % area sulfoxide relative to % area Control: 0.149
- (% area sulfoxide for each agent/% area sulfoxide in Blank): About 1
- Average % area sulfoxide for 3 runs per agent (API disodium salt solution plus agent): 1.126%
